Experimental data taken from patent US6974837B2, “Compositions comprising sibutramine metabolites in combination with phosphodiesterase inhibitors” (Sepracor Inc., priority 1999, dated 2005).

Amino acid sequences for entries named in this document (tags omitted).
UniProt P31652, whole entry: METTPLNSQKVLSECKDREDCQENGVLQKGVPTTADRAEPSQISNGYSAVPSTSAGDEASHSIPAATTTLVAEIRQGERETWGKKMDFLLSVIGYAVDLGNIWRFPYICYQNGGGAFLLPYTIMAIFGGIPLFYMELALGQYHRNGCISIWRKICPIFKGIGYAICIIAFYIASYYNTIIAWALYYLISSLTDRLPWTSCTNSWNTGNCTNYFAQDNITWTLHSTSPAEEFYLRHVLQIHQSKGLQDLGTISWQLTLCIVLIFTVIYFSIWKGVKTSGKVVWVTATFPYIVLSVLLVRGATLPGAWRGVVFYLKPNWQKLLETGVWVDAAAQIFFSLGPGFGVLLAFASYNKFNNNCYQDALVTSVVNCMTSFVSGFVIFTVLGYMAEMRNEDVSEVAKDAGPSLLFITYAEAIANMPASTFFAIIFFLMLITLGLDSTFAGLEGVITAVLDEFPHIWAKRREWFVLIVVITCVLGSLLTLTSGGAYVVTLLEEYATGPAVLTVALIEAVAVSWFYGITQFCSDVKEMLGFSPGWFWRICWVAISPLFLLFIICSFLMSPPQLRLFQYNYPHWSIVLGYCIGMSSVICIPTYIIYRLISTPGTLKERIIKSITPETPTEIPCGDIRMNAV
UniProt P31645, whole entry: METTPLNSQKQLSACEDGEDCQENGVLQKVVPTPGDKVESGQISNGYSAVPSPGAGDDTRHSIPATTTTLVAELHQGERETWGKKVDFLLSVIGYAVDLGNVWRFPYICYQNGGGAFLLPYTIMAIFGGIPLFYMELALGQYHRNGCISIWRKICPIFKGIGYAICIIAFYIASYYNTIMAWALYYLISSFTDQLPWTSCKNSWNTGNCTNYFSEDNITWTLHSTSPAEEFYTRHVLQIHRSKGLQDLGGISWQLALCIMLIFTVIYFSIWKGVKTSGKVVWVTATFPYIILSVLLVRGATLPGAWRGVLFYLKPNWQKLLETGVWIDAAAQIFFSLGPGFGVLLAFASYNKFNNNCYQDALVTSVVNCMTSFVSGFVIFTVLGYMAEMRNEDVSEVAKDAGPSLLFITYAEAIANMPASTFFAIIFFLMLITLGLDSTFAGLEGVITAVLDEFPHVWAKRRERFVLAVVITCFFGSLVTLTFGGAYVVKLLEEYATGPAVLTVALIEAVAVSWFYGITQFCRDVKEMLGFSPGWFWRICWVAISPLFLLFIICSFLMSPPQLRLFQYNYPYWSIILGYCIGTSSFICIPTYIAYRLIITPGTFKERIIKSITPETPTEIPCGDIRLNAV

How the values were obtained:
[1] = target: serotonin (5-HT) uptake site (Rattus norvegicus, UniProt P31652); assay: biochemical
Procedure: (§1) IC50 values (concentration required to inhibit 50% specific binding) were then determined by nonlinear regression analysis of the curves and tabulated below.

[2] = target: 5-hydroxytryptamine (5HT; serotonin) reuptake (Homo sapiens, UniProt P31645); conditions: cited from earlier work
[3] = target: nonselective muscarinic receptor; assay: Binding at the nonselective muscarinic receptor; conditions: rat cerebral cortex
Procedure: as §1

[4] = read-out: Binding IC50 5-HT Uptake, rat cerebral cortex

SMILES	IC50 [1, 4] [nM]	IC50 [1] [nM]	further results
CC(C)CC(N(C)C)C1(c2ccc(Cl)cc2)CCC1 (racemic) [(R/S)-Sibutramine, [N-1-[1-(4-chlorophenyl)cyclobutyl]-3-methylbutyl]-N,N-dimethylamine, reference compound]	2800		
CNC(CC(C)C)C1(c2ccc(Cl)cc2)CCC1 (racemic) [(R/S)-desMe, 1-(4-chlorophenyl)-N-methyl-2-(2-methylpropyl)-cyclobutanamethamine]		21	in vitro 5-hydroxytryptamine reuptake inhibition, potency relative to sibutramine [2]: more potent
CC(C)CC(N)C1(c2ccc(Cl)cc2)CCC1 (racemic) [(R/S)-didesMe, 1-[1-(4-chlorophenyl)cyclobutyl]-3-methylbutylamine]			in vitro 5-hydroxytryptamine reuptake inhibition, potency relative to sibutramine [2]: more potent
CC(C)C[C@@H](N(C)C)C1(c2ccc(Cl)cc2)CCC1 [(R)-Sibutramine, reference compound]		2100	IC50 [3]: 4.01 µM
CN[C@H](CC(C)C)C1(c2ccc(Cl)cc2)CCC1 [(R)-desMe]	44		
CC(C)C[C@@H](N)C1(c2ccc(Cl)cc2)CCC1 [(R)-didesMe]	140		
CC(C)C[C@H](N(C)C)C1(c2ccc(Cl)cc2)CCC1 [(S)-Sibutramine, reference compound]		4900	IC50 [3]: 3.02 µM
CN[C@@H](CC(C)C)C1(c2ccc(Cl)cc2)CCC1 [(S)-desMe]		9200	
CC(C)C[C@H](N)C1(c2ccc(Cl)cc2)CCC1 [(S)-didesMe]		4300	

Like-named read-outs stand apart in the source and are kept apart here.
